## Apparent affinities of Ab-14 variants for a coronavirus HR2 peptide

The measurements come from Engelhart et al. 2022 (doi:10.1038/s41597-022-01779-4) through the FLAb antibody collection.

Antigen: PDVDLGDISGINAS, a 14-residue peptide of the SARS-CoV-2 spike HR2 region.

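The starting antibody came from a phage panning campaign against this peptide. AAYL49 was designed without a model: most single CDR substitutions and a random sample of double and triple ones. AlphaSeq pools MATa yeast showing the antibodies with MATalpha yeast showing the peptide. Mating (16 h, 30 °C) was followed by selection of diploids and sequencing of their barcodes. The ratio of observed to expected reads was calibrated, replicate by replicate, on BCL2-family standards whose Kd was known from biolayer interferometry. The assay was run in three technical replicates.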

Parent scFv Ab-14: VH joined to VL by a 15-residue (Gly4Ser)3 linker. Changes lie in the heavy chain CDRs alone.
VH: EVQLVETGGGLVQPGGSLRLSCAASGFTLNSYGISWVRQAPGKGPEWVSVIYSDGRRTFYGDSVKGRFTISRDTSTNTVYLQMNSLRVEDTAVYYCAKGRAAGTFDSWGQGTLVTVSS
VL: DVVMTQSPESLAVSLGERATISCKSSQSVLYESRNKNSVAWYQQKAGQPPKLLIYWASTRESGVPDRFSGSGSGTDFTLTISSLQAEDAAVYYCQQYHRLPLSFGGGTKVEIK

Changes read parent residue, position, new residue, counted from the first residue of the VH shown. Every variant below is changed at V64 of the VH (sequential numbering). Kd is apparent (estimated from mating counts) and averaged on the log scale over replicates with a signal. Smaller is tighter. Where no diploid with the target was found in any replicate, the entry reads "nd": below detection, most likely a poor binder, though not proof of it. Parent in this assay: reference entry 4.4 nM, copy in this library 13 µM (one replicate of three). Empty control strains, which show no peptide, gave a signal in 15% of pairings with library AAYL49; the median was 11 µM and 95% of these signals were weaker than 680 nM. No background was subtracted. For each scFv, signals with the empty controls are counted beside the result.

- R57M/F59P/V64H = nd (0 of 3 replicates; controls 0 of 9)
- S31D/Y32W/V64D = nd (0 of 3 replicates; controls 0 of 9)
- S35N/I51S/V64N = nd (0 of 3 replicates; controls 3 of 9)
- Y32N/V64T/D106E = nd (0 of 3 replicates; controls 2 of 9)
- V64I/A101W/F105K = nd (0 of 3 replicates; controls 2 of 9)
- F27T/V64Y/A102V = 260 µM (1 of 3 replicates; controls 3 of 9)
- G26H/Y60T/V64N = nd (0 of 3 replicates; controls 1 of 9)
- L29D/R56P/V64I = nd (0 of 3 replicates; controls 0 of 9)
- G61S/V64E = 6.1 µM (3 of 3 replicates; controls 3 of 9)
- D62V/S63I/V64H = 28 µM (1 of 3 replicates; controls 1 of 9)
- V64M/A101V = nd (0 of 3 replicates; controls 0 of 9)
- G26R/T28P/V64G = nd (0 of 3 replicates; controls 1 of 9)
- T28Y/V64K/A101V = 350 nM (3 of 3 replicates; controls 5 of 9)
- Y32C/D54L/V64W = 1.2 mM (1 of 3 replicates; controls 3 of 9)
- G55M/T58C/V64E = nd (0 of 3 replicates; controls 0 of 9)
- V64I/A102T = 3.5 µM (3 of 3 replicates; controls 4 of 9)
- T28C/F59W/V64E = nd (0 of 3 replicates; controls 0 of 9)
- V64M/R100W/G103F = nd (0 of 3 replicates; controls 0 of 9)
- R57N/V64F/A102I = nd (0 of 3 replicates; controls 2 of 9)
- Y52A/V64C/K65I = nd (0 of 3 replicates; controls 1 of 9)
- V50L/R57A/V64H = nd (0 of 3 replicates; controls 0 of 9)
- S63A/V64A/G103K = nd (0 of 3 replicates; controls 0 of 9)
- S31L/S35D/V64W = nd (0 of 3 replicates; controls 0 of 9)
- S63Y/V64P/G103F = 10 µM (1 of 3 replicates; controls 0 of 9)
- F27K/Y32T/V64W = nd (0 of 3 replicates; controls 0 of 9)
- S31N/D62K/V64N = 1.2 µM (1 of 3 replicates; controls 2 of 9)
- G55H/F59H/V64M = 16 µM (1 of 3 replicates; controls 0 of 9)
- G33Y/V64Y/A101D = 13 µM (2 of 3 replicates; controls 1 of 9)
- R57Y/Y60W/V64I = 33 µM (2 of 3 replicates; controls 8 of 9)
- L29T/Y32N/V64E = 2.8 µM (2 of 3 replicates; controls 3 of 9)
- G26K/G33E/V64S = nd (0 of 3 replicates; controls 0 of 9)
- G26L/G55H/V64T = 10 µM (2 of 3 replicates; controls 1 of 9)
- F27I/V64H/F105I = 16 µM (2 of 3 replicates; controls 4 of 9)
- G33R/D54L/V64K = nd (0 of 3 replicates; controls 0 of 9)
- S63V/V64S = 3.9 mM (1 of 3 replicates; controls 4 of 9)
- R56N/V64N/F105L = nd (0 of 3 replicates; controls 1 of 9)

Excerpt, the first 4 entries:

- R57M/F59P/V64H: nd (0 of 3 replicates; controls 0 of 9)
- S31D/Y32W/V64D: nd (0 of 3 replicates; controls 0 of 9)
- S35N/I51S/V64N: nd (0 of 3 replicates; controls 3 of 9)
- Y32N/V64T/D106E: nd (0 of 3 replicates; controls 2 of 9)